Several values for one entry are separate records, joined by “and”; a condition that tells them apart may be missing. Equal entries are not always repeated.
System: male NMRI mice
Assay: Gridshock test (pain threshold, CNS effect)
Details: i.v.

CC(C)C1CCC(N2CCC3(CC2)C(=O)NCN3c2ccccc2)CC1 (stereo not shown)
dose at which statistical significant analgesia was observed: 1000 nmol/kg and 2000 nmol/kg
